In patent US20250313558A1, “IMIDAZOLIDINE DERIVATIVE OR PHARMACEUTICALLY ACCEPTABLE SALT THEREOF, AND USE THEREOF” (CELLUS INC., priority 2023, published 2025):
pIC50: −log10 of the molar value.

Sequences of proteins named here, by UniProt entry; tags and fusion partners are left off. Residues count along the entry.
UniProt Q9UNA0, 262-930 limits assumed: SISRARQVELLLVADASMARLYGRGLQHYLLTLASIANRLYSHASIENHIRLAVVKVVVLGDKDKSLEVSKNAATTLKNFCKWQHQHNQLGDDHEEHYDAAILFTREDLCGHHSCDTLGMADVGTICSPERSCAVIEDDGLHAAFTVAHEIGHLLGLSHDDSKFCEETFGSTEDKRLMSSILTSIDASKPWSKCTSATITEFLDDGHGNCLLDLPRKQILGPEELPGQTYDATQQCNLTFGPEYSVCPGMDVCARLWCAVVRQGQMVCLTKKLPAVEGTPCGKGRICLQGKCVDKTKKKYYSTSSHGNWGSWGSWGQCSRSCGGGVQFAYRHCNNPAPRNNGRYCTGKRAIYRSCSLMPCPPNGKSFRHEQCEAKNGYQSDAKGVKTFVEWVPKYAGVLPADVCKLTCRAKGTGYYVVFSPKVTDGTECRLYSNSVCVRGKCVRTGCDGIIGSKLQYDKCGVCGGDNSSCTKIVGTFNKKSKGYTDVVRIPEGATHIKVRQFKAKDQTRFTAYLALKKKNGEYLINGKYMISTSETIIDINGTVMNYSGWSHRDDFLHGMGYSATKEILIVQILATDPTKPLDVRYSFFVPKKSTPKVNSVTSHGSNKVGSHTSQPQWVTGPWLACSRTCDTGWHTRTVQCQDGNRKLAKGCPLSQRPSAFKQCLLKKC
UniProt O75173, 213-837 limits assumed: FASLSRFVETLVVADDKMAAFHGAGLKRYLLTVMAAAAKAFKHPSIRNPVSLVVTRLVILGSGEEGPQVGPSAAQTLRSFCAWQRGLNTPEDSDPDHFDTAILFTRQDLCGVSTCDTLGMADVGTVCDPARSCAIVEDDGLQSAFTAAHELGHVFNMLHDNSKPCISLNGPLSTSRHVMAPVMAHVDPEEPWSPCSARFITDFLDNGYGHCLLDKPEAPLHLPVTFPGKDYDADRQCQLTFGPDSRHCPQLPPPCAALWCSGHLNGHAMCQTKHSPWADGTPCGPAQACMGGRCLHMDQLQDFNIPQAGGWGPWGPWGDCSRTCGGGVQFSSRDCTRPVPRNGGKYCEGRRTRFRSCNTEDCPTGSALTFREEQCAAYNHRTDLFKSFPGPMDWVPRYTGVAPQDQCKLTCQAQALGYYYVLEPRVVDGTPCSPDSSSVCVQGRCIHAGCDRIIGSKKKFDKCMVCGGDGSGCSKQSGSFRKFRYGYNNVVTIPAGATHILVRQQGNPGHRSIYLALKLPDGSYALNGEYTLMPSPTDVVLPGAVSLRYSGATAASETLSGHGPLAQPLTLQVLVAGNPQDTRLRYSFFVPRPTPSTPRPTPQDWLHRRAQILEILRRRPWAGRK

How the values were obtained:
[1] = system: mouse cartilage explant (femoral heads); experiment: Ex vivo mouse cartilage explant, GAG release by DMMB assay; conditions: femoral heads of 5-day-old mouse, IL-1β, cultured 72 hours
Procedure: Femoral heads of 5-day-old mouse were obtained and treated with each of ADAMTS5 targeting substances while simultaneously treating with IL-1β, and cultured for 72 hours. After culture, the culture medium was collected to confirm GAG release, and the cartilage tissue was fixed, made into a paraffin block, and sectioned using a microtome.
DMMB assay was performed to analyze the amount of cartilage matrix released by decomposition in the culture medium, and as a result, the amount of GAG measured in CLS-S210 and CLS-S282 among ADAMTS5 targeting effective substances was low, and it was confirmed that the compound has an excellent effect in protecting cartilage by inhibiting cartilage matrix decomposition (FIG. 9).

[2] = system: mouse model of osteoarthritis; experiment: Mouse model of osteoarthritis (DMM surgery), Safranin-O staining, OARSI grade; conditions: DMM surgery mice, injected into the knee
Procedure: In order to observe the effect of each compound on cartilage degeneration in vivo, Safranin-O staining was performed and the OARSI grade, which can evaluate cartilage damage caused by osteoarthritis, was quantified.
The degree of cartilage damage was evaluated by giving a score from 0 to 6 points. As a result of confirming the cartilage protection effect of ADAMTS5 targeting effective substances in mice of osteoarthritis induced through DMM surgery, in the case of osteoarthritis mice treated with vehicle, surface erosion and cartilage loss were clearly observed as characteristics, whereas in ADAMTS5 targeting compounds, cartilage damage was reduced, and a significant reduction was observed particularly in CLS-S210 and CLS-S282 compounds (FIG. 10).

ADAMTS5 = ADAMTS5 (Homo sapiens, UniProt Q9UNA0); experiment: FRET assay, inhibition of ADAMTS5; conditions: for pIC50: read-out: IC50, inhibition of ADAMTS5
ADAMTS4 = ADAMTS4 (Homo sapiens, UniProt O75173); experiment: FRET assay, inhibition of ADAMTS4
Procedure: The control compound GLPG-1972 and four effective compounds (CLS-S210 (Formula 2), CLS-S282 (Formula 3), CLS-S213 (Formula 4), and CLS-S214 (Formula 5)) were treated with ADAMTS5, ADAMTS4, ADAM10, and ADAM17 proteins to perform Fluorescence Resonance Energy Transfer (FRET) evaluation. FRET assay is a method to detect and quantify the fluorescent signal generated when ADAM/ADAMTS proteins […] specific peptides.

[3] = system: mouse model of osteoarthritis; experiment: Mouse model of osteoarthritis, pain sensitization experiment; conditions: DMM surgery mice, injected into the knee

| SMILES | amount of GAG released into culture medium (DMMB assay) [1] | cartilage damage (OARSI grade, score 0 to 6) [2] | inhibition ability against ADAMTS5 (in words) (ADAMTS5) | pIC50 (ADAMTS5) | inhibition ability against ADAMTS4 (in words) (ADAMTS4) | pain (pain sensitization experiment) [3] |
| --- | --- | --- | --- | --- | --- | --- |
| O=C1NC(=O)C(CNC(=O)N2CCCc3c2[nH]c2ccccc32)(C2CC2)N1 (stereo not drawn) | low | significant reduction | excellent inhibition ability | 7.38 | excellent inhibition ability | significant pain reduction |
| O=C1NC(=O)C(CCC(=O)N2CCCc3c2[nH]c2ccccc32)(C2CC2)N1 (stereo not drawn) | low | significant reduction | excellent inhibition ability | 7.23 | excellent inhibition ability | significant pain reduction |
